Measured values published in patent US8044094B2, “Agents for preventing and treating disorders connected to impaired neurotransmission” (DSM IP Assets B.V., priority 2004, dated 2011).

Chains of the proteins cited; added tags and fusions are not shown.
UniProt P31645, whole entry: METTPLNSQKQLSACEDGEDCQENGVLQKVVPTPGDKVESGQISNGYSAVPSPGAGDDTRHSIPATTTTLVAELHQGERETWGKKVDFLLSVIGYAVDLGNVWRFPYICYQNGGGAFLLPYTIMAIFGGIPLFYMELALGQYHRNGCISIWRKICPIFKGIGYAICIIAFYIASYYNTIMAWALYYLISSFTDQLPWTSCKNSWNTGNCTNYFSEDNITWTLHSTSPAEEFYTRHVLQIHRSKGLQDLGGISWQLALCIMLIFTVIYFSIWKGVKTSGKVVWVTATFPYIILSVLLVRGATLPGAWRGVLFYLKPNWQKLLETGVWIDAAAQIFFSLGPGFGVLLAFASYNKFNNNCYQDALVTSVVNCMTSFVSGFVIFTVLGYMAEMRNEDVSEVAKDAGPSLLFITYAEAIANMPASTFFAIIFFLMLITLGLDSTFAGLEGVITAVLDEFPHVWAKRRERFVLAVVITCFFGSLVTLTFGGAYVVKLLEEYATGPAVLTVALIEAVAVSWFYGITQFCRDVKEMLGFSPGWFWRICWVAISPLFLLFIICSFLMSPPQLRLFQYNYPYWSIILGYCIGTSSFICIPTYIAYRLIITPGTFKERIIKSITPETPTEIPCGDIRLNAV

Legend:
[1] = target: T1, human serotonin re-uptake transporter (hSERT) (Homo sapiens, UniProt P31645); assay: Labeled citalopram displacement from hSERT containing membranes (SPA); type: binding; conditions: read-out: Inhibition constant Ki for tritiated citalopram displacement, Ki from IC50 by Cheng-Prusoff, 3.3 nM (3H) citalopram
Description: Membranes containing hSERT were prepared from the above cell line according to Galli et al, Journal of Experimental Biology 1995, 198, 2197-2212. 3 μg of membrane protein and 0.8 mg of wheat germ aglutinin coated SPA® (scintillation proximity assay) beads (Amersham Biosciences GE Healthcare, Slough, UK) per data point were mixed with radio-labeled (3H) citalopram (Amersham Biosciences GE Healthcare, Slough, UK) until a final concentration of 3.3 nM in 50 mM Tris-HCl, 300 mM NaCl (pH 7.4). After incubation for 18 hours at room temperature, the bound citalopram was quantified by liquid scintillation counting.
The effect of the coumarin ethers of formula I on the serotonin uptake and the citalopram binding was determined by its inclusion in the assay at a range of concentrations between 0.03 and 100 μM for 10 minutes prior to and during the addition of (3H) serotonin/citalopram. Serotonin uptake via the transporter and citalopram binding were both inhibited by the coumarin ethers of formula I in a dose dependent manner. The calculated inhibition constants Ki, derived from the measured IC50 using the Cheng—Prusoff equation (Y. C. Cheng, W. H. Prusoff, Biochem. Pharmacol. 1973, 22, p. 3099-3108), for inhibition of serotonin uptake and citalopram binding by coumarin ethers of the formula I are shown in Table 1.

[2] = target: T1, human serotonin re-uptake transporter (hSERT); assay: Serotonin uptake inhibition in HEK-293 cells stably expressing hSERT; type: cell-based; conditions: read-out: Inhibition constant Ki for tritiated serotonin uptake; transfected HEK-293 cells; Ki from IC50 by Cheng-Prusoff; 20 nM (3H) serotonin
Description: HEK-293 cells stably expressing the human serotonin re-uptake transporter (hSERT) were obtained from R. Blakely, Vanderbilt University, USA. The cells were routinely grown in Dulbeco's Modified Eagles Medium, purchased from Bioconcept, Allschwil, Switzerland containing 10% fetal calf serum, penicillin, streptomycin, L-glutamine and the antibiotic G418 and passaged by trypsinisation. 1 day prior to the assay cells were seeded in the above mentioned medium. Immediately prior to the assay the medium was replaced by Krebs Ringers bicarbonate buffer, purchased from Sigma Chemicals Ltd., supplemented with 35 μM pargyline, 2.2 mM CaCl2, 1 mM ascorbic acid and 5 mM N-2-hydroxyethylpiperazine-N′-2-ethanesulfonic acid (buffer called “Hepes”). Serotonin uptake into the cells was determined by addition of radio-labeled (3H) serotonin (Amersham Biosciences GE Healthcare, Slough, UK) to a concentration of 20 nM, and incubation for 30 minutes at room temperature. Following removal of unincorporated label by gentle washing three times with the above buffer, incorporated serotonin was quantified by liquid scintillation counting.
The effect of the coumarin ethers of formula I on the serotonin uptake and the citalopram binding was determined by its inclusion in the assay at a range of concentrations between 0.03 and 100 μM for 10 minutes prior to and during the addition of (3H) serotonin/citalopram. […]

For `CC(=O)OC(C)(C)C(=O)C/C=C(/C)CCC/C(C)=C/COc1ccc2ccc(=O)oc2c1`, the Ki [1] was 7.4 µM and the Ki [2] was 4.3 µM.
